Measurements published in ChEMBL document CHEMBL3797107, “Discovery of 5-(methylthio)pyrimidine derivatives as L858R/T790M mutant selective epidermal growth factor receptor (EGFR) inhibitors” (Bioorg Med Chem, 2016).

Species on record: Homo sapiens
Assay: Selectivity index, ratio IC50 for wild-type EGFR (unknown origin) expressed in baculovirus expression system to IC50 for EGFR T790M/L858R mutant (unknown origin) expressed in baculovirus expression system

C=CC(=O)Nc1cccc(Oc2nc(Nc3ccc(N4CCN(C(=O)C(C)C)CC4)cc3OC)ncc2SC)c1
Ratio IC50: 48

C=CC(=O)Nc1cccc(Oc2nc(Nc3ccc(N4CCN(C(=O)C(C)(C)C)CC4)cc3OC)ncc2SC)c1
Ratio IC50: 42

C=CC(=O)Nc1cccc(Oc2nc(Nc3ccc(N4CCN(C(=O)C(F)(F)F)CC4)cc3OC)ncc2SC)c1
Ratio IC50: 56

C=CC(=O)Nc1cccc(Oc2nc(Nc3ccc(N4CCN(C(C)=O)CC4)cc3OC)ncc2SC)c1
Ratio IC50: 125

C=CC(=O)Nc1cccc(Oc2nc(Nc3ccc(N4CCN(C(C)=O)CC4)cc3OC(F)F)ncc2SC)c1
Ratio IC50: 14

C=CC(=O)Nc1cccc(Oc2nc(Nc3ccc(N4CCN(C)CC4)cc3OC)ncc2SC)c1
Ratio IC50: 679

C=CC(=O)Nc1cccc(Oc2nc(Nc3ccc(N4CCN(S(C)(=O)=O)CC4)cc3OC)ncc2SC)c1
Ratio IC50: 100

C=CC(=O)Nc1cccc(Oc2nc(Nc3ccc(N4CCN(C(=O)CC)CC4)cc3OC(F)F)ncc2SC)c1
Ratio IC50: 13
